Experimental data published in patent US11655216B2 (priority 2016, dated 2023).

Amino acid sequences for entries named in this document (tags omitted). Residues count along the entry.
UniProt P55055, 222-460 limits assumed: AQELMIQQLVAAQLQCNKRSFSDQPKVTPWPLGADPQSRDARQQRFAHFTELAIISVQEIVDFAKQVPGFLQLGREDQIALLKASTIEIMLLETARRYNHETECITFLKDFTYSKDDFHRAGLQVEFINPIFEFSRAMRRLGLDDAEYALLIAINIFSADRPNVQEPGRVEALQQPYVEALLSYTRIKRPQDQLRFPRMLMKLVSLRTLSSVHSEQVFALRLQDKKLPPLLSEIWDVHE
UniProt Q13133, 209-447 limits assumed: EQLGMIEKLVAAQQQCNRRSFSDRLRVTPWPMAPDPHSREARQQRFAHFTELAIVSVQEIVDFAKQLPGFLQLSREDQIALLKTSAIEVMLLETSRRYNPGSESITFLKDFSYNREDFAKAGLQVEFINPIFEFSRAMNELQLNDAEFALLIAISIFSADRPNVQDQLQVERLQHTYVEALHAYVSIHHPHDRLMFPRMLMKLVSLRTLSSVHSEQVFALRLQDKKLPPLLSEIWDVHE

Tests used:
[1] = target: glutathione-S-transferase (GST) tagged LXRbeta LBD (ligand binding domain) (Homo sapiens, UniProt P55055); assay: LanthaScreen TR-FRET Liver X Receptor Coactivator Assay, LXR beta; type: biochemical
[2] = target: glutathione-S-transferase (GST) tagged LXRalpha LBD (ligand binding domain) (Homo sapiens, UniProt Q13133)
[3] = efficacy (% Emax) in relation to reference dual agonist T0901317

## CN(C)C(=O)c1ccc(OCCCCC2CCN(C(=O)C3(c4ccccc4)CCCO3)CC2)cc1Cl (single isomer, unassigned) [Example 3-5, (S or R)-2-chloro-N,N-dimethyl-4-(4-(1-(2-phenyl-tetrahydrofuran-2-carbonyl)piperidin-4-yl)butoxy)benzamide]
[1]; [3]
  LXR beta actiivty at max dose: 72%
[1]; read-out: LXR beta IP, potency (Inflection Point), compound-induced co-activator recruitment, TR-FRET
  EC50: 0.169 µM
[2]; [3]
  LXR alpha actiivty at max dose: 17%
[2]; read-out: LXR alpha IP, potency (Inflection Point), compound-induced co-activator recruitment, TR-FRET
  EC50: 1.37 µM
